Laboratory results taken from PMC5688144, “Assay interference and off-target liabilities of reported histone acetyltransferase inhibitors” (Nature Communications, 2017).

The chains behind the UniProt entries cited, without tags or fusion partners.
UniProt Q92831, whole entry, species assumed: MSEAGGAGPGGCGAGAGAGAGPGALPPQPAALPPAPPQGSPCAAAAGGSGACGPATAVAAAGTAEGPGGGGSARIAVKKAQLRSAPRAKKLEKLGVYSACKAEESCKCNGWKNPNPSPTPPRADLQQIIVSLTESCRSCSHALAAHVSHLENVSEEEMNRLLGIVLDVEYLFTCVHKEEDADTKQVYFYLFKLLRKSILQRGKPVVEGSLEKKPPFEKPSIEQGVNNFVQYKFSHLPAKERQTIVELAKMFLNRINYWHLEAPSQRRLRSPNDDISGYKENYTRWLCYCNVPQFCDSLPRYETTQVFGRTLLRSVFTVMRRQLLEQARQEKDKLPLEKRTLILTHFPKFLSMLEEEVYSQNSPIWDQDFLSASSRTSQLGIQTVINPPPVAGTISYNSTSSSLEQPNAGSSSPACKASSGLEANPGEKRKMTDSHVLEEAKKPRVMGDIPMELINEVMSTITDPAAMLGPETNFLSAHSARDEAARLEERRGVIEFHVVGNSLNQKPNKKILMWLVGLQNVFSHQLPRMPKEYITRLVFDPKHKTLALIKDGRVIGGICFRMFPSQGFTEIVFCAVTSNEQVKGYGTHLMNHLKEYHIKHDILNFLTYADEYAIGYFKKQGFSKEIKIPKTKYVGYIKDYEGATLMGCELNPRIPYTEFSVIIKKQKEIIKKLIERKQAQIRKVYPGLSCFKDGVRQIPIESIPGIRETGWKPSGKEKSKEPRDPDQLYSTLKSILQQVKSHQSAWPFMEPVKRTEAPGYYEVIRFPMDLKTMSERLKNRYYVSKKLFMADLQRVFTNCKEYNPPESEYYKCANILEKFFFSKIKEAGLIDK

Key:
human La antigen = biological target: T1, human La antigen (Homo sapiens, UniProt P05455, T302N); assay: ALARM NMR; type: binding
T1 construct: amino acids 100–324 of the human La antigen (plus T302N mutation); 6xHis (N); 6xHis (C); host or cells: Escherichia coli Rosetta cells
T1 sequence (P05455 100-324 T302N): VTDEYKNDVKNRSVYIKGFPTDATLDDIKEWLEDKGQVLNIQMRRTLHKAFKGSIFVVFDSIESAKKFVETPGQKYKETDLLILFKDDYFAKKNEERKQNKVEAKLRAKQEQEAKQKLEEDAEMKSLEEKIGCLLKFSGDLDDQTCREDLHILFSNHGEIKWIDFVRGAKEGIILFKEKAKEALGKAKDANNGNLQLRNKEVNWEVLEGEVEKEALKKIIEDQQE
Source text: The gene encoding amino acids 100–324 of the human La antigen (plus T302N mutation) was cloned into pET28b + vector (Novagen) with both an N- and C-terminal 6xHis tag (addgene.org, plasmid ID 90209). The sequence identity of the ALARM NMR plasmid construct was verified by Sanger sequencing of the transgene region and next-generation sequencing of the whole plasmid.
Plasmid was transformed into Escherichia coli Rosetta cells (Novagen) and cultured in M9 minimal media. The La antigen was labeled by adding ^13C-labeled amino acid precursors ([3-^13C]-α-ketobutyrate and [3,3′-^13C]-α-ketoisovalerate sodium salts; Cambridge Isotope Laboratories; 250 mg L^−1 final concentrations) to culture medium 30 min before induction with IPTG (1 mM final concentration). Bacteria were collected after incubation at 25 °C for 8 h and washed with ice-cold phosphate-buffered saline (PBS). Washed cells were lysed by French press in ice-cold lysis buffer (50 mM Tris, pH 7.6, 300 mM NaCl, 10% glycerol (v/v), 5 mM β-mercaptoethanol (BME), 5 mM imidazole, 2 mM MgCl2, benzonase, and protease inhibitor cocktail), followed by an additional brief sonication step (3 × 15 s pulse sequence) on ice. […] The eluted La antigen product was verified by SDS–PAGE to have the correct molecular weight (calculated 32 kDa), and pooled pure fractions were then dialyzed (25 mM sodium phosphate, pH 7.0, 5 mM DTT) in 16 h cycles at 4 °C with gentle stirring, for three total buffer cycles. […]
For standard testing conditions, the [^1H-^13C]-HMQC spectra were acquired in 25 mM sodium phosphate buffer, pH 7.0, 10% D2O (v/v; CIL) ± 400 μM test compounds delivered from the aforementioned stock solutions, and ± 20 mM non-deuterated DTT. […] Data were recorded at 298 K on a Bruker UltraShield 700 MHz NMR spectrometer equipped with a Bruker 1.7 mm TCI Cryoprobe and Bruker SampleJet autosampler. […]
Data were analyzed in TopSpin™ 3.5 (Bruker). […]

[1] = system: panel of proteases, kinases, and phosphatases; assay: Pilot selectivity panel (Reaction Biology); type: biochemical
Experimental: (§1) Selectivity profiles vs. HATs, HDACs, SIRTs, HMTs, proteases, kinases, and phosphatases were performed by Reaction Biology Corporation (Malvern, PA; Fig. 3 and Supplementary Fig. 3). Percent activity was normalized to DMSO-only controls. Reference control compounds were included in each assay.
(§2) Relevant reaction procedures for each target class are briefly summarized (see reactionbiology.com for additional details). HATs: reaction buffer 50 mM Tris–HCl, pH 8.0, 50 mM NaCl, 0.1 mM EDTA, ± 1 mM DTT, 1 mM PMSF, 1% DMSO; substrate [^3H]-acetyl-CoA; reaction time 1 h; end-point measurement. […] HMTs: reaction buffer 50 mM Tris–HCl, pH 8.0, 0.01% Brij35, 1 mM EDTA, 1 mM DTT, 1 mM PMSF, 1% DMSO (EZH2); reaction buffer 50 mM Tris–HCl, pH 7.5, 5 mM EDTA, 0.01% Brij35, 5 mM DTT, 0.1 mM PMSF, 5% glycerol, 1% DMSO; 50 mM Tris–HCl, pH 8.5, 5 mM MgCl2, 50 mM NaCl, 0.01 Brij35, 1 mM DTT, 1% DMSO (G9a); methyl donor 1 μM S-Adenosyl-L-[methyl-^3H]-methionine; substrate 5 μM histone proteins or 0.05 mg mL^−1 nucleosomes; pre-incubation time 10–15 min; reaction time 0.5–1 h; end-point measurement. Caspases: reaction buffer 50 mM HEPES, pH 7.4, 1 M citrate, 100 mM NaCl, 0.01% CHAPS, 0.1 mM EDTA, 10 mM DTT; fluorogenic peptide substrate; pre-incubation time 10 min; reaction time 2 h; time-course measurement. […]

five tested HATs = assay: HAT selectivity panel with DTT (Reaction Biology); type: biochemical
Experimental: as §1
Relevant reaction procedures for each target class are briefly summarized (see reactionbiology.com for additional details). HATs: reaction buffer 50 mM Tris–HCl, pH 8.0, 50 mM NaCl, 0.1 mM EDTA, ± 1 mM DTT, 1 mM PMSF, 1% DMSO; substrate [^3H]-acetyl-CoA; reaction time 1 h; end-point measurement. HDACs: reaction buffer 50 mM Tris–HCl, pH 8.0, 137 mM NaCl, 2.7 mM KCl, 1 mM MgCl2, 1 mg mL^−1 BSA, 1% DMSO; fluorogenic substrate p53 residues 379–382 (RHKK(Ac)-AMC) (HDAC1/2/3/6/10), fluorogenic substrate p53 residues 379–382 (RHK(Ac)K(Ac)AMC) (HDAC8); fluorogenic substrate trifluoroacetyl lysine (HDAC4/5/7/9/11); pre-incubation included; reaction time 1–2 h; trichostatin A or TMP269 quencher; fluorescent readout λexcite = 360 nm, λemission = 460 nm; end-point measurement. […]

PCAF [2] = biological target: T2, PCAF (Homo sapiens, UniProt Q92831); assay: PCAF activity in presence and absence of DTT; type: biochemical
T2 construct: Reaction Biology Corporation (assays run by this contract lab)
Experimental: as §1, §2

GCN5 = conditions: cited from earlier work
PCAF [3] = biological target: T2, PCAF; conditions: read-out: IC50 (µM), PCAF; cited from earlier work
Tip60 = conditions: cited from earlier work

For `c1cc(SSc2ccns2)sn1` [Compound 2, NU-9056], the “ALARM NMR interpretation” value (human La antigen) was “Thiol-reactive”, the “ALARM NMR, (+) DTT” value (human La antigen) was “Negative” and the “ALARM NMR, (-) DTT” value (human La antigen) was “Positive”. The “activity vs. most of the targets tested” value [1] was “little activity”, the “activity vs. the five tested HATs” value (five tested HATs) was “minimal activity” and the “inhibition of PCAF in the absence of DTT compared with DTT present” value (PCAF [2]) was “notable exceptions”. The IC50 (GCN5) was greater than 100 µM, the IC50 (PCAF [3]) was 33 µM and the IC50 (Tip60) was roughly 2 µM.
